Laboratory results reported in patent US9968573B2, “Endoprosthesis having and active substance coating” (HEMOTEQ AG, priority 2011, dated 2018).
Like-named read-outs stand apart in the source and are kept apart here.

Tests used:
[1] = calculated, assuming immediate and complete release
L929 cells = conditions: Ti-Cylinder, rough surface
Description: This allows a conclusion on the proliferation of the cells during incubation.

[2] = In vitro elution of antibiotic from coated titanium samples (ninhydrin colour reaction); format: physicochemical; conditions: within 11 days, static aqueous system, 37°
Description: FIG. 6 In vitro experiments show, that there is no controlled in vitro release of gentamicin palmitate (within 11 days) but rather high initial concentration without apparent release delay, wherein, compared to gentamicin pantothenate and gentamicin pantothenate/PVP with 100% release, only 58% of gentamicin are released.
Therefore the samples are given in 2 mL demineralized water and maintained at 37° over a set period of time in a static aqueous system. At fixed times each 50 μL sample volume are taken. The determination of the antibiotic amount in the sample was done by means of ninhydrin color reaction. This method of determination of amount works for all antibiotics, which have amino groups, such as illustrated representatively with the example of the structure of the amino glycoside gentamicin: […]

Gentamicin-Penta-Pantothenate
maximum dose classified as safe (upper limit) [1]: 873 μg/cm^2
Cytotoxic according to ISO 10993-5 (L929 cells; 700 μg/cm^2): No
Cytotoxic according to ISO 10993-5 (L929 cells; 800 μg/cm^2): No
Cytotoxic according to ISO 10993-5 (L929 cells; 900 μg/cm^2): No
release of gentamicin from coating [2]: 100%
